Here are results for one molecule from publication PMC11463559 (bioRxiv, 2024).

Assay [1] addresses AT1R-LgBiT (UniProt P30556). Briefly: split reporter.
The target of assay [2] is AT1R-LgBiT (UniProt P30556). As to the kind of experiment: split reporter. The source holds these as a separate data set.

B1: SmBiT-β-arrestin 1 (natural protein, rat, UniProt P29066 1-418, looked up)
chain: MGDKGTRVFKKASPNGKLTVYLGKRDFVDHIDLVDPVDGVVLVDPEYLKERRVYVTLTCAFRYGREDLDVLGLTFRKDLFVANVQSFPPAPEDKKPLTRLQERLIKKLGEHAYPFTFEIPPNLPCSVTLQPGPEDTGKACGVDYEVKAFCAENLEEKIHKRNSVRLVIRKVQYAPERPGPQPTAETTRQFLMSDKPLHLEASLDKEIYYHGEPISVNVHVTNNTNKTVKKIKISVRQYADICLFNTAQYKCPVAMEEADDTVAPSSTFCKVYTLTPFLANNREKRGLALDGKLKHEDTNLASSTLLREGANREILGIIVSYKVKVKLVVSRGGLLGDLASSDVAVELPFTLMHPKPKEEPPHREVPESETPVDTNLIELDTNDDDIVFEDFARQRLKGMKDDKDEEDDGTGSPHLNNR
Turning to B1, the “logEC50 of the agonist TRV023 for recruitment” value with AT1R-LgBiT [1] is -7.66 log M. Also, the “logEC50 of the agonist AngII for recruitment” value with AT1R-LgBiT [2] is -9.13 log M.
